Literature values, collected in patent publication EP4003298B1 (Offhealth S.p.A., priority 2019, dated 2021).

Tested on: eye
Settings: cited from earlier work

For “vitamin E - D-α-tocopherol polyethylene glycol (TPGS) [vitamin E TGPS]”, the “concentration with cytotoxic (irritating) effect on the eye” value is given as “greater than 0.5 % by weight”.
